Peptide text beside a SMILES is read from it.
Legend:
HSV-2 R6 = test: Inhibition of cell-free HSV-2 infection of HFFs; type: cell-based, herpes simplex virus 2; details: versus TB40-BAC4, 1 h preincubation, MOI 1, fixed 6 h p.i.
HFFs = type: cell-based, human
HSV-1 R10.2 = test: Inhibition of cell-free HSV-1 infection of HFFs; type: cell-based, herpes simplex virus 1; details: versus TB40-BAC4, 1 h preincubation, MOI 1, fixed 6 h p.i.
TB40-BAC4 = type: cell-based, Human cytomegalovirus; details: 2 h

SMILES | Shift in EC50 toward the higher dose range compared to HCMV (HSV-2 R6) [fold] | Cell viability relative to DMSO containing medium (HFFs) | Shift in EC50 toward the higher dose range compared to HCMV (HSV-1 R10.2) [fold] | EC50 (TB40-BAC4) [nM]
CC[C@H](C)[C@H](NC(=O)[C@H](Cc1ccc(O)cc1)NC(=O)[C@@H](NC(=O)[C@H](Cc1c[nH]cn1)NC(=O)[C@H](CCCNC(=N)N)NC(=O)CN)[C@@H](C)CC)C(=O)N[C@@H](Cc1ccc(O)cc1)C(=O)N[C@H](C(=O)N1CCC[C@H]1C(=O)N[C@@H](CC(=O)O)C(=O)N1CCC[C@H]1C(=O)N[C@@H](CC(=O)O)C(=O)N[C@H](C(=O)N[C@@H](C)C(=O)N[C@@H](Cc1ccccc1)C(=O)N[C@H](C(=O)N1CCC[C@H]1C(=O)N[C@@H](CC(C)C)C(=O)NCC(=O)N[C@@H](CCSC)C(=O)N[C@H](C(=O)N[C@@H](CC(=O)O)C(=O)N[C@@H](Cc1ccc(O)cc1)C(=O)N[C@@H](CC(C)C)C(=O)N[C@H](C(=O)N[C@H](C(=O)N[C@H](C(=O)N[C@@H](CCC(=O)O)C(=O)N[C@@H](CC(=O)O)C(=O)N[C@@H](CC(=O)O)C(=O)O)C(C)C)[C@@H](C)CC)C(C)C)[C@@H](C)O)C(C)C)C(C)C)C(C)C [GD30] (H-GRHIYIYVPDPDVAFVPLGMTDYLVIVEDD-OH; N-terminus and C-terminus assumed) | 9.6 | does not affect cell viability | 5.9 | 2100
CC[C@H](C)[C@H](NC(=O)[C@H](C)NC(=O)[C@H](CO)NC(=O)[C@H](CC(=O)O)NC(=O)[C@H](CC(=O)O)NC(=O)[C@H](CC(=O)O)NC(=O)[C@H](CCC(=O)O)NC(=O)[C@@H](NC(=O)[C@@H](NC(=O)[C@@H](NC(=O)[C@H](CC(C)C)NC(=O)[C@H](Cc1ccc(O)cc1)NC(=O)[C@H](CC(=O)O)NC(=O)[C@@H](NC(=O)[C@H](CCSC)NC(=O)CNC(=O)[C@H](CC(C)C)NC(=O)[C@@H]1CCCN1C(=O)[C@@H](NC(=O)[C@H](Cc1ccccc1)NC(=O)[C@H](C)NC(=O)[C@@H](NC(=O)[C@H](CC(=O)O)NC(=O)[C@@H]1CCCN1C(=O)[C@H](CC(=O)O)NC(=O)[C@@H]1CCCN1C(=O)[C@@H](NC(=O)[C@H](Cc1ccc(O)cc1)NC(=O)[C@@H](NC(=O)[C@H](Cc1ccc(O)cc1)NC(=O)[C@@H](NC(=O)[C@H](Cc1c[nH]cn1)NC(=O)[C@H](CCCNC(=N)N)NC(=O)CN)[C@@H](C)CC)[C@@H](C)CC)C(C)C)C(C)C)C(C)C)[C@@H](C)O)C(C)C)[C@@H](C)CC)C(C)C)C(=O)N[C@H](C(=O)N1CCC[C@H]1C(=O)N[C@@H](CS)C(=O)N[C@@H](CCCNC(=N)N)C(=O)N[C@H](C(=O)N[C@H](C(=O)O)[C@@H](C)O)[C@@H](C)O)[C@@H](C)CC [GT40] | – | – | – | 2600

Source: article PMC8473290 (Viruses, 2021)
